Active and inactive are the calls of the source. No cut-off for these calls is given here.
What was measured:
[1] = organism: Homo sapiens; assay: Selectivity index, ratio of EC50 for agonist activity at human mu opioid receptor expressed in CHO-K1 cells to EC50 for agonist activity at human kappa opioid receptor expressed in CHO-K1 cells; assay type: cell-based
[2] = target: T1, Mu-type opioid receptor (Homo sapiens, UniProt P35372); assay: Agonist activity at human mu opioid receptor expressed in CHO-K1 cells assessed as inhibition of forskolin-stimulated cAMP accumulation at 10 uM by HitHunter assay based luminescence analysis; assay type: functional, cell-based
[3] = target: T2, Kappa-type opioid receptor (Homo sapiens, UniProt P41145); assay: Agonist activity at kappa opioid receptor (unknown origin) assessed as beta arrestin2 recruitment at 3 uM by PRESTO-Tango assay; assay type: functional; settings: filed as agonist
[4] = target: Delta-type opioid receptor (Homo sapiens) (UniProt P41143); assay: Agonist activity at human delta opioid receptor expressed in CHO-K1 cells assessed as inhibition of forskolin-stimulated cAMP accumulation at <1 uM by HitHunter assay based luminescence analysis; assay type: functional, cell-based
[5] = target: T1, Mu-type opioid receptor; assay: Agonist activity at human mu opioid receptor expressed in CHO-K1 cells assessed as inhibition of forskolin-stimulated cAMP accumulation by HitHunter assay based luminescence analysis relative to control; assay type: functional, cell-based
[6] = target: T2, Kappa-type opioid receptor; assay: Agonist activity at human kappa opioid receptor expressed in CHO-K1 cells assessed as inhibition of forskolin-stimulated cAMP accumulation by HitHunter assay based luminescence analysis relative to control; assay type: functional, cell-based; settings: filed as agonist

Protein sequences, listed by entry. Tags and fused reporters are not part of them. Lines headed by an entry give the natural chain unless they say otherwise; changes in a name come on top.
UniProt P35372, whole entry: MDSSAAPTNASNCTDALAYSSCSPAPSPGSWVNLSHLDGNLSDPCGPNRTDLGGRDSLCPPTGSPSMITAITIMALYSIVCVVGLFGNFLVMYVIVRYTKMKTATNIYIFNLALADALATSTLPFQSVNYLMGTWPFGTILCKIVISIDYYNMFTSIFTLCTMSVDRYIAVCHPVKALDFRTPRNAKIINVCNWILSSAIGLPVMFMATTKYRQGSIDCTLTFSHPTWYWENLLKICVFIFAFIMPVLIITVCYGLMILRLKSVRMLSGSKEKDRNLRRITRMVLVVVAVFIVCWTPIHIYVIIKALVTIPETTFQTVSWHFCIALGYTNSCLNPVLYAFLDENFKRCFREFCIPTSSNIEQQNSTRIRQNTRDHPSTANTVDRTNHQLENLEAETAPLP
UniProt P41145: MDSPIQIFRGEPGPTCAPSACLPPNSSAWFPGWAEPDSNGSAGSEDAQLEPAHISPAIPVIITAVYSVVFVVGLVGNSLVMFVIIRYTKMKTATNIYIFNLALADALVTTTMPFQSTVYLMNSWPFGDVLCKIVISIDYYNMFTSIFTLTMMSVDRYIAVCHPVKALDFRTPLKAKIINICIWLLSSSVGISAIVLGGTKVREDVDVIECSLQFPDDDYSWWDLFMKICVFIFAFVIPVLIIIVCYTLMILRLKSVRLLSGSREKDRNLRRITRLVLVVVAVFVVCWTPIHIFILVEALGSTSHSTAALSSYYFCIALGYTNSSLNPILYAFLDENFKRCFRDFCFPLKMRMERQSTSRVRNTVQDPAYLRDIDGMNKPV
UniProt P41143, whole entry: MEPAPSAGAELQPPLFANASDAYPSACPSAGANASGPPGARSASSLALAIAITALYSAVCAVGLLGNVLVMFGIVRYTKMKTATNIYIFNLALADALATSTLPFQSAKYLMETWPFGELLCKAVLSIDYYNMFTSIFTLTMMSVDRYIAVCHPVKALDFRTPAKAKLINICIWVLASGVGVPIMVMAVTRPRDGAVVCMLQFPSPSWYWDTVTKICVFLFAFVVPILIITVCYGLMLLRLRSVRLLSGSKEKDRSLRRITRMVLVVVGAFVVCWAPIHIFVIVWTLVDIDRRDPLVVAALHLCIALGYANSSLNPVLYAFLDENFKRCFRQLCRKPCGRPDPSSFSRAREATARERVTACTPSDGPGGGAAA

Compound: C/C=C1/CN2CC[C@]34C(=C(C(=O)OC)[C@H]1C[C@H]23)Nc1ccc(-c2ccccc2)cc14
- Ratio EC50 [1]: 52

Compound: C/C=C1/CN2CC[C@]34c5cc(Br)ccc5NC3C(C(=O)OC)[C@H]1C[C@H]24 (stereo partly specified)
- Activity [2]: inactive

Compound: C/C=C1/CN2CC[C@]34C(=C(C(=O)OC)[C@H]1C[C@H]23)Nc1ccc(-c2ccoc2)cc14
- Ratio EC50 [1]: 820

Compound: C/C=C1/CN2CC[C@]34C(=C(C(=O)OC)[C@H]1C[C@H]23)Nc1ccc(-c2ccsc2)cc14
- Ratio EC50 [1]: 110

Compound: C/C=C1/CN2CC[C@]34C(=C(C(=O)OC)[C@H]1C[C@H]23)Nc1ccc(I)cc14
- Ratio EC50 [1]: 7200
- Activity [3]: Active
- Activity [4]: inactive
- Emax [5]: < 10%
- Emax [6]: 98%

Compound: C/C=C1/CN2CC[C@]34C(=C(C(=O)OC)[C@H]1C[C@H]23)Nc1ccccc14 [AKUAMMICINE]
- Activity [2]: inactive
- Activity [4]: inactive

— ChEMBL document CHEMBL6074668 (J Med Chem, 2024)
